Literature values as cited in article PMC7529705.

Tests used:
[1] = target: histone H3R2me1 peptide (Homo sapiens) (UniProt P68431); conditions: cited from earlier work
[2] = target: histone H3R2me2s peptide (Homo sapiens) (UniProt P68431); conditions: cited from earlier work

## WDR5 (from UniProt P61964)
[1]
  Kd: > 500 µM
[2]
  Kd: 0.1 µM
